Results as given in PMC12703741, “Light-Activated Metal-Dependent Protein Degradation: A Heterobifunctional Ruthenium(II) Photosensitizer Targeting New Delhi Metallo-β-lactamase 1” (Journal of the American Chemical Society, 2025).
Several values for one entry are separate records, joined by “and”; a condition that tells them apart may be missing. Equal entries are not always repeated. Where two headings read alike, the source gives them in different places.

By UniProt entry, the sequences of proteins in these tests, tags left out. Residues count along the entry.
UniProt C7C422, 29-270 limits assumed: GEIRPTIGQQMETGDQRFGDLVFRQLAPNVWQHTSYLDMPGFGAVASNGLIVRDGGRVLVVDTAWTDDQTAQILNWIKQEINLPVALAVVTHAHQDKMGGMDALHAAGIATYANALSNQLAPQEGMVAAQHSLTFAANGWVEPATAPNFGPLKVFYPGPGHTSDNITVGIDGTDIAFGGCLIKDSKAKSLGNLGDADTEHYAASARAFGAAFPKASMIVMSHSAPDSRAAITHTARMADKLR
UniProt C7C422, 31-270 limits assumed: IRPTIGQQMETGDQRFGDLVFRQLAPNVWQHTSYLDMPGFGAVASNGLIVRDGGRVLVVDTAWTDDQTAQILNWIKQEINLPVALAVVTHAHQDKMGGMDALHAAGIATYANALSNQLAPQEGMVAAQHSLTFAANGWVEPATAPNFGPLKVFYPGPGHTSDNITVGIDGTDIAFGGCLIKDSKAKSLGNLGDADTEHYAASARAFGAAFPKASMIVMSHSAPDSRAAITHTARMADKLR

What was measured:
[1] = test system: hTERT RPE-1
[2] = test system: RAW264.7; conditions: RAW
[3] = Luminescence lifetime of the excited state; format: physicochemical; conditions: PBS
[4] = test system: HCT116
[5] = Chromatographic LogD measurement; conditions: pH 7.4
[6] = test system: HEK293T
[7] = Photostability by UV-Vis in PBS; format: physicochemical; conditions: 10 μM, 450 nm
Experimental: Both complexes were stable up to and including 23 J cm^–2 (Figure S5). The lifetime of the excited state is one of the key factors which affect ROS generation. […] To quantify the generation of ^1O2 produced by the complexes, 1,3-diphenylisobenzofuran (DPBF) was used as a ^1O2 scavenger. […]
spectra of both compounds in PBS ( 10 μM) under light irradiation (450 nm, 23 J cm -2 over 240 […]
1.2.4 Electron Paramagnetic Resonance (EPR)
All EPR measurements were performed using a Bruker Magnettech spectrometer (ESR5000), Bruker (Germany), at room temperature. EPR samples were transferred to a 20 μL BLAUBRAND micropipette and spectra were recorded at 9.47 GHz microwave frequency, 2 mW microwave power, 100 kHz modulation frequency and 0.1 mT modulation amplitude. The field was scanned from 331.3 mT to 343.3 mT and a single scan was acquired.

[8] = 1O2 quantum yield by DPBF photooxidation; format: physicochemical; conditions: oxygenated methanol, 450 nm
[9] = test system: HeLa
[10] = test system: HaCaT
[11] = test system: E. coli empty; conditions: 320 μM, 1 h
Experimental: (§1) In parallel, a control set was incubated without compounds for 50 min, followed by incubation with 75 μM meropenem trihydrate for 10 min. Cells were then pelleted, washed, resuspended in water, lysed, and clarified before LC-MS analysis.
(§2) 1.12 LC-MS accumulation assay
(§3) 1.12.1 Bacterial Strains and Growth Conditions:
(§4) Accumulation assay was performed two E. coli K-12 MG1655 strains transfected with pSU18 vector containing NDM-1 expression or an empty vector control. Cell growth was performed in Luria-Bertani (LB) broth (NaCl 10g/L, K2HPO4 6.3 g/L, KH2PO4 1.8 g/L, sodium citrate […]
(§5) 1.12.2 Preparation of Accumulation Assay Samples for LC-MS Analysis:
(§6) Assay was adapted from the work of Geddes et al. and Widya et al.9–11 E. coli MG1655 pSU18 NDM-1 and pSU18 Empty were grown from single colonies at 37 °C with aeration, while shaking at 180 rpm for 18 hours. The overnight suspensions were subcultured (1:100) in fresh LB and incubated to yield an OD600 of 0.55-0.60. The were harvested and pelleted at 3500 × g for 15 minutes at 4 °C. The pellets were washed with Meuller -Hinton II (MHII) broth and pelleted again under the same conditions. The pellets were resuspended in a n adjusted volume of fresh MHII to achieve an OD 600 ≈ 10.0. Shielded from ambient light, cells were incubated with 320 μM of metal complex for 1 hour while shaking at 180 rpm. […]
(§7) nM were also prepared to assess quantitative accuracy. […]

[12] = test system: E. coli NDM-1; conditions: 320 μM, 1 h
Experimental: as §1, §2, §3, §4, §5, §6, §7

[13] = test system: HepG2
[14] = target: NDM-1 in E. coli NDM-1 (Klebsiella pneumoniae, UniProt C7C422); conditions: E. coli NDM-1, nitrocefin
[15] = target: NDM-1 (Klebsiella pneumoniae, UniProt C7C422); conditions: recombinant NDM-1, nitrocefin

Substance: [Ru(2,2'-bipyridine)2(1-(4-(3-aminophenyl)pyridine-2,6-dicarboxylic acid)-imidazo[4,5,f][1,10]phenanthroline)](PF6)2 [Ru1]
- LD50 ([1]; RPE1, 24 h): > 50 µM
- LD50 ([1]; RPE1, 48 h): > 50 µM
- LD50 ([2]; 24 h): > 50 µM
- LD50 ([2]; 48 h): > 50 µM
- Luminescence lifetime of excited state [3]: 481 ns
- LD50 ([4]; HCT116, 24 h): > 50 µM
- LD50 ([4]; HCT116, 48 h): > 50 µM
- ChromLogD [5]: -0.04
- LD50 ([6]; 24 h): > 50 µM
- LD50 ([6]; 48 h): > 50 µM
- Light dose up to which complex is stable [7]: ≥ 23 J cm^–2
- 1O2 quantum yield (ΦΔ) [8]: 0.89
- LD50 ([9]; 24 h): > 50 µM
- LD50 ([9]; 48 h): > 50 µM
- LD50 ([10]; 24 h): > 50 µM
- LD50 ([10]; 48 h): > 50 µM
- Accumulation [11]: 604 nM/OD600
- Accumulation [12]: 370 nM/OD600
- LD50 ([13]; HepG2, 24 h): > 50 µM
- LD50 ([13]; HepG2, 48 h): > 50 µM
- IC50 ([14]; read-out: IC50(dark), dark): 22.4 µM and 22 µM
- IC50 ([14]; read-out: IC50(light), light 450 nm, 60 J cm^-2): 0.75 ± 0.054 µM
- IC50 ([15]; read-out: IC50(dark), dark): 23 ± 1.4 µM
- IC50 ([15]; read-out: IC50(light), light 450 nm, 20 J cm^-2): 0.22 ± 0.02 µM
